pIC50: −log10 of the molar value.
How the values were obtained:
WEE1 = WEE1 (Homo sapiens, UniProt P30291); experiment: NanoBRET target engagement in HEK293T cells, WEE1; conditions: read-out: WEE1 INHIBITION IC50, 2 h
[1] = Metabolic stability in human liver microsomes (HLM); conditions: human liver microsomes 1 mg/mL, 1 μM
EPHB3 = EPHB3 (Homo sapiens, UniProt P54753); experiment: NanoBRET target engagement in HEK293T cells, EPHB3; conditions: read-out: EPHB3 INHIBITION IC50, 2 h
PKMYT1 = PKMYT1 (Homo sapiens, UniProt Q99640); experiment: NanoBRET target engagement in HEK293T cells, PKMYT1; conditions: read-out: PKMYT1 INHIBITION IC50, 2 h
[2] = molecular target: CDK1 pThr14 (PKMYT1 substrate), FUOV-1 cells (Homo sapiens, UniProt Q99640); experiment: Functional CDK1 pThr14 AlphaLISA assay in FUOV-1 cells; conditions: read-out: pCDk1(Thr14) INHIBITION IC50, 2 h
Log D octanol/PBS pH 7.4 = conditions: octanol/PBS pH 7.4, 1 μM
[3] = Aqueous (thermodynamic) solubility, pH 7.4; conditions: 0.1 M phosphate buffer pH 7.4, 24 h, 25 °C
SKOV3 cells = experiment: Cellular proliferation (Hoechst staining), SKOV3; conditions: read-out: SKOV3 GI50; CCNE1-nonamplified, 4 days
OVCAR3 cells = experiment: Cellular proliferation (Hoechst staining), OVCAR3; conditions: read-out: OVCAR3 GI50; CCNE1-amplified, 4 days

Chains of the proteins cited; added tags and fusions are not shown. Residues count along the entry.
UniProt P30291, whole entry: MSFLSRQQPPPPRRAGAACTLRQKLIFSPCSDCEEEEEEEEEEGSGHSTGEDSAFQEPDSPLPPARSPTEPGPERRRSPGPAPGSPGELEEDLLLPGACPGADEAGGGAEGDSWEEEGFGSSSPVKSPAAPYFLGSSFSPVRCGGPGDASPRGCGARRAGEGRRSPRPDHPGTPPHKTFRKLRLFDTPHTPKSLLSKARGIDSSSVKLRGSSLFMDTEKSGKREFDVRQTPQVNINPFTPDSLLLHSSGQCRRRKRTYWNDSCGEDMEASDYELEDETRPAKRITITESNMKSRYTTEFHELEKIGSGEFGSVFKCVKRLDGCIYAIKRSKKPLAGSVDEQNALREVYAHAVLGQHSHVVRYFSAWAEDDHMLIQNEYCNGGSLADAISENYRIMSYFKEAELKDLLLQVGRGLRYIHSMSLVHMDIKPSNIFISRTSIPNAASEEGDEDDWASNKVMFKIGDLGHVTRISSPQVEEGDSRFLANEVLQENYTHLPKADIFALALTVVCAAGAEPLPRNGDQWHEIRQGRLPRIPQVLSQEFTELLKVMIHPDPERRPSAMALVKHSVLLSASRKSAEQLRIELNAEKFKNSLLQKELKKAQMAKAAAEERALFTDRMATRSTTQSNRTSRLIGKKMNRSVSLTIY
UniProt P54753, 34-998 limits assumed: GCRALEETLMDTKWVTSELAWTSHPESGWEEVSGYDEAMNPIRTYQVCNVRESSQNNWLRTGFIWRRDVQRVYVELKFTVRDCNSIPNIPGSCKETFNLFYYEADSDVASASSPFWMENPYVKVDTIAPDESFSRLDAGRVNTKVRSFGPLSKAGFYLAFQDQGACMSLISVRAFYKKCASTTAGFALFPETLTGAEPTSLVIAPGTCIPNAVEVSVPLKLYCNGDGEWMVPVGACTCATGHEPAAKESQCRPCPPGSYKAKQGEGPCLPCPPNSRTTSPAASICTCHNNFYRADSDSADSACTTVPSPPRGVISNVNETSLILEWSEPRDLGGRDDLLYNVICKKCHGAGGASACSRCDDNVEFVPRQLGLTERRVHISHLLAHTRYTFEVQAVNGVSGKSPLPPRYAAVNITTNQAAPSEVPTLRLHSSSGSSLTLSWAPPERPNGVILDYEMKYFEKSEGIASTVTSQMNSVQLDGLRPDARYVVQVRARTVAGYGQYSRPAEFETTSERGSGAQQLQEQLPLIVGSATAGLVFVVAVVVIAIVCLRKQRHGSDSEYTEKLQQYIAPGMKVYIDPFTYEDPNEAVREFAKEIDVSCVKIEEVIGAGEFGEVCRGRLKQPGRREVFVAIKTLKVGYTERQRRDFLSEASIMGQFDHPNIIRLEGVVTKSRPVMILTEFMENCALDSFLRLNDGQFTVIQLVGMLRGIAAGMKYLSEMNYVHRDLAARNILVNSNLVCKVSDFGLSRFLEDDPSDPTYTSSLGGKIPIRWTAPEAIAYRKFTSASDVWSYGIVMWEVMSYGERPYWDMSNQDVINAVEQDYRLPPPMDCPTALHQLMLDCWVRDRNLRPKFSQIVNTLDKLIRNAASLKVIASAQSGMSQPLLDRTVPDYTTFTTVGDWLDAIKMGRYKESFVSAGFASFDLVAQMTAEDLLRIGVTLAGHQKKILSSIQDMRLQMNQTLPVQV
UniProt Q99640, whole entry: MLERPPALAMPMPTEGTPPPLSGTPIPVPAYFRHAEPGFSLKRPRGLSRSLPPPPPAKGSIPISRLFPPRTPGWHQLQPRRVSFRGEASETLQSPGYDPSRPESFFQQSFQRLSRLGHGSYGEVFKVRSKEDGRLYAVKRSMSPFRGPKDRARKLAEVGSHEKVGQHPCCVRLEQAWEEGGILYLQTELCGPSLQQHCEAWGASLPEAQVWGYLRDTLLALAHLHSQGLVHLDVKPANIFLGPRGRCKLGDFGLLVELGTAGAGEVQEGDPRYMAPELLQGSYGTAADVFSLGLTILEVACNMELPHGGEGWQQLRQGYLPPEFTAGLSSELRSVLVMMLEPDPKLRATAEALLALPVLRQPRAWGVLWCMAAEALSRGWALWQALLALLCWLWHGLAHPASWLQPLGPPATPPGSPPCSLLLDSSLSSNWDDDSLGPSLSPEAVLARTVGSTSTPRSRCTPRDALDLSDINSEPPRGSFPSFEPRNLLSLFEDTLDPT

| Structure (SMILES) | pIC50 (WEE1) | HLM (CLint) [1] [µL/min/mg] | pIC50 (EPHB3) | pIC50 (PKMYT1) | pIC50 [2] | LogD (Log D octanol/PBS pH 7.4) | Solubility pH 7.4 [3] [μM] | GI50 (SKOV3 cells) [µM] | GI50 (OVCAR3 cells) [µM] |
| --- | --- | --- | --- | --- | --- | --- | --- | --- | --- |
| COc1nc(C)nc2c1c(C(N)=O)c(N)n2-c1c(C)ccc(O)c1C (racemic) | < 5.00 | 16.200 | 6.77 | 8.10 | 7.14 | 2.2 |  |  |  |
| Cc1ccc(O)c(C)c1-n1c(N)c(C(N)=O)c2cnc(Br)nc21 (racemic) | < 5.00 | 8.140 | 5.76 | 7.74 | 6.46 | 1.9 | 150 |  |  |
| Cc1ccc(O)c(C)c1-n1c(N)c(C(N)=O)c2cnc(N3CC(F)(F)C3)nc21 (racemic) | < 5.00 | 41.253 | 6.35 | 7.72 | 6.62 | 2.29 | 125 |  |  |
| Cc1ccc(O)c(C)c1-n1c(N)c(C(N)=O)c2cnc(N3CCC(F)(F)C3)nc21 (racemic) | < 5.00 | 52.407 | 7.04 | 8.05 | 6.61 | 2.78 | 5 |  |  |
| Cc1ncc2c(C(N)=O)c(N)n(-c3c(C)ccc(O)c3Cl)c2n1 (racemic) | < 5.00 |  | 5.62 | 7.64 | 6.63 |  |  | 18.2 | 1.46 |
| Cc1ccc(O)c(C)c1-n1c(N)c(C(N)=O)c2cnc(N3CCC(F)(F)C3)nc21 (single isomer, unassigned) [10, Isomer 1] | 5.27 | 49.624 | 7.44 | 8.15 | 6.98 |  |  |  |  |
| Cc1ccc(O)c(C)c1-n1c(N)c(C(N)=O)c2cnc(N3CCC(F)(F)C3)nc21 (single isomer, unassigned) [10, Isomer 2] | < 5.00 | 46.045 | < 5.00 | 6.06 | < 5.00 |  |  |  |  |
| C=Cc1ncc2c(C(N)=O)c(N)n(-c3c(C)ccc(O)c3C)c2n1 (single isomer, unassigned) [17, Isomer 1] | < 5.00 | 21.352 | 6.56 | 8.10 | 6.97 |  |  | 4.57 | 1.4 |
| C=Cc1ncc2c(C(N)=O)c(N)n(-c3c(C)ccc(O)c3C)c2n1 (single isomer, unassigned) [17, Isomer 2] | < 5.00 | 13.514 | < 5.00 | 5.44 | < 5.00 |  |  | > 30 | > 30 |
| Cc1ccc(O)c(C)c1-n1c(N)c(C(N)=O)c2cnc(C(C)C)nc21 (single isomer, unassigned) [48, Isomer 1] | < 5.00 | 74.193 | 6.33 | 7.92 | 6.73 |  |  | 15.4 | 6.98 |
| Cc1ccc(O)c(C)c1-n1c(N)c(C(N)=O)c2cnc(C(C)C)nc21 (single isomer, unassigned) [48, Isomer 2] | < 5.00 | 29.010 | < 5.00 | 6.24 | 5.18 |  |  | > 30 | 7.57 |
| Cc1ccc(O)c(C)c1-n1c(N)c(C(N)=O)c2cnc(C3CC3)nc21 (single isomer, unassigned) [50, Isomer 1] | < 5.00 | 34.347 | 6.77 | 8.10 | 6.96 |  |  | 6.03 | 3.65 |
| Cc1ccc(O)c(C)c1-n1c(N)c(C(N)=O)c2cnc(C3CC3)nc21 (single isomer, unassigned) [50, Isomer 2] | < 5.00 | 16.252 | < 5.00 | 5.41 | < 5.00 |  |  | > 30 | > 30 |
| Cc1cc2c(nn1)c(C(N)=O)c(N)n2-c1c(C)ccc(O)c1C (single isomer, unassigned) [53, Isomer 1] | < 5.00 | 6.800 | < 5.00 | < 5.00 | < 5.00 |  |  |  |  |
| Cc1cc2c(nn1)c(C(N)=O)c(N)n2-c1c(C)ccc(O)c1C (single isomer, unassigned) [53, Isomer 2] | < 5.00 | 9.700 | 6.17 | 7.10 | 5.54 |  |  |  |  |
| Cc1ccc(O)c(C)c1-n1c(N)c(C(N)=O)c2cnc(C3CCC3)nc21 (single isomer, unassigned) [71, Isomer 1] | < 5.00 | 145.851 | 6.74 | 8.40 | 7.14 |  |  |  |  |

| Structure (SMILES) | pIC50 (WEE1) | HLM (CLint) [1] [µL/min/mg] | pIC50 (EPHB3) | pIC50 (PKMYT1) | pIC50 [2] | LogD (Log D octanol/PBS pH 7.4) | Solubility pH 7.4 [3] [μM] | GI50 (SKOV3 cells) [µM] | GI50 (OVCAR3 cells) [µM] |
| --- | --- | --- | --- | --- | --- | --- | --- | --- | --- |
| Cc1ccc(O)c(C)c1-n1c(N)c(C(N)=O)c2cnc(C3CCC3)nc21 (single isomer, unassigned) [71, Isomer 2] | < 5.00 | 70.948 | < 5.00 | 5.93 | 5.02 |  |  |  |  |
| Cc1ncc2c(C(N)=O)c(N)n(-c3c(Cl)ccc(O)c3C)c2n1 (single isomer, unassigned) [73, Isomer 2] | < 5.00 |  | < 5.00 | 5.97 | 5.22 |  |  |  |  |
| Cc1ccc(O)c(C)c1-n1c(N)c(C(N)=O)c2cnc(N3CCCC3)nc21 (single isomer, unassigned) [74, Isomer 1] | < 5.00 | 53.282 | 7.59 | 8.22 | 6.86 |  |  |  |  |
| Cc1ccc(O)c(C)c1-n1c(N)c(C(N)=O)c2cnc(N3CCCC3)nc21 (single isomer, unassigned) [74, Isomer 2] | < 5.00 | 73.837 | < 5.00 | 5.28 | < 5.00 |  |  |  |  |
| Cc1ccc(O)c(C)c1-n1c(N)c(C(N)=O)c2cnc(N3CCC3)nc21 (single isomer, unassigned) [75, Isomer 1] | < 5.00 | 13.871 | 6.93 | 7.74 | 6.45 |  |  |  |  |
| Cc1ccc(O)c(C)c1-n1c(N)c(C(N)=O)c2cnc(N3CCC3)nc21 (single isomer, unassigned) [75, Isomer 2] | < 5.00 | 10.395 | < 5.00 | 5.09 | < 5.00 |  |  |  |  |
| CCOc1ncc2c(C(N)=O)c(N)n(-c3c(C)ccc(O)c3C)c2n1 (single isomer, unassigned) [83, Isomer 1] | < 5.00 | 8.880 | < 5.00 | 5.66 | < 5.00 |  |  |  |  |
| CCOc1ncc2c(C(N)=O)c(N)n(-c3c(C)ccc(O)c3C)c2n1 (single isomer, unassigned) [83, Isomer 2] | < 5.00 | 22.200 | 6.53 | 7.92 | 6.80 |  |  |  |  |
| Cc1ncc2c(C(N)=O)c(N)n(-c3c(Cl)ccc(O)c3Cl)c2n1 (single isomer, unassigned) [85, Isomer 1] | < 5.35 | <3.000 | < 5.02 | 7.40 | 6.59 |  |  |  |  |
| Cc1ncc2c(C(N)=O)c(N)n(-c3c(Cl)ccc(O)c3Cl)c2n1 (single isomer, unassigned) [85, Isomer 2] | < 5.00 | <3.000 | < 5.00 | 5.62 | 5.01 |  |  |  |  |
| CNc1ncc2c(C(N)=O)c(N)n(-c3c(C)ccc(O)c3C)c2n1 (single isomer, unassigned) [92, Isomer 1] | < 5.00 | 7.183 | 6.72 | 7.74 | 6.90 |  |  |  |  |
| CNc1ncc2c(C(N)=O)c(N)n(-c3c(C)ccc(O)c3C)c2n1 (single isomer, unassigned) [92, Isomer 2] | < 5.00 | <3.000 | < 5.00 | 5.51 | < 5.00 |  |  |  |  |
| CC#Cc1ncc2c(C(N)=O)c(N)n(-c3c(C)ccc(O)c3C)c2n1 (single isomer, unassigned) [93, Isomer 1] | < 5.50 | 12.494 | < 5.00 | 5.15 | < 5.00 |  |  |  |  |
| CC#Cc1ncc2c(C(N)=O)c(N)n(-c3c(C)ccc(O)c3C)c2n1 (single isomer, unassigned) [93, Isomer 2] | < 5.00 | 5.751 | 5.83 | 7.72 | 6.82 |  |  |  |  |
| Cc1ccc(O)c(C)c1-n1c(N)c(C(N)=O)c2cnc(N3CC(C)(C)C3)nc21 (single isomer, unassigned) [135, Isomer 1] | < 5.00 | 42.040 | 6.63 | 8.00 | 6.74 |  |  |  |  |
| Cc1ccc(O)c(C)c1-n1c(N)c(C(N)=O)c2cnc(N3CC(C)(C)C3)nc21 (single isomer, unassigned) [135, Isomer 2] | < 5.00 | 42.608 | < 5.00 | 5.71 | < 5.00 |  |  |  |  |
